Literature values, collected in EP0935964A1, “Pharmaceutical compositions containing NSAIDs and piperine” (PANACEA BIOTEC LIMITED, priority 1998, dated 1999).

Details: in vivo; cited from earlier work

CS(=O)(=O)Nc1ccc([N+](=O)[O-])cc1Oc1ccccc1 [Nimesulide, N-(4-nitro, 2-phenoxyphenyl) methanesulfonamide]
metabolites excreted in the faeces: ~20%
metabolites excreted in the urine: ~70%
